Usually Kd stands for the concentration at which binding is half-saturated.

The text below walks through data of PMC10972748.

The target of the test is SPSB3–ELOBC heterotrimeric complex (SPSB3 amino acids 83–326 with elongin B and elongin C) (UniProt Q6PJ21). Nature of the test: BLI. The note with it: natural protein.

“His-Halo-tagged cGAS single point mutant of Glu509 (from UniProt Q8N884 1-522)” gave a Kd of 22.1 µM. In the case of “His-Halo-tagged cGAS single point mutant of Tyr510 (from UniProt Q8N884 1-522)” it was 3.3 µM.
